Assay results taken from patent publication US20030086902A1, “Cytokine-like peptide” (priority 1999, published 2003).

Molecular target: T1, soluble interferon receptor (Homo sapiens, UniProt P17181+P48551)
T1 construct: AR1 is designed to encode the extracellular region of amino acid residues 1 to 436; AR2 is designed to encode the extracellular region of amino acid residues 1 to 243; made in house; host or cells: COS-1 cells, transient co-transfection by DEAE-Dextran; purified from culture medium on Protein A Sepharose CL-4B
T1 sequence (P17181 28-436): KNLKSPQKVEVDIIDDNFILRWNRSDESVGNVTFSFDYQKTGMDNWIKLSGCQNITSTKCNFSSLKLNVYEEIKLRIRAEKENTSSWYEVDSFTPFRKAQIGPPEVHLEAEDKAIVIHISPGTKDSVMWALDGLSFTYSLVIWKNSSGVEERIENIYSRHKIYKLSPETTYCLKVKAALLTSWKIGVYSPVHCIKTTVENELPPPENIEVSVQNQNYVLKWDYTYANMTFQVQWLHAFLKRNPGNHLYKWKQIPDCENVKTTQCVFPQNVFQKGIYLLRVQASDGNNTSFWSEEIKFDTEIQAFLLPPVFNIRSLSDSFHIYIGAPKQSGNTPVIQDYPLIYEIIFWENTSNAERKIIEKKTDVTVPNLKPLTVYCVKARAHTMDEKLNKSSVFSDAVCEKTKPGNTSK
T1 sequence (P48551 27-243): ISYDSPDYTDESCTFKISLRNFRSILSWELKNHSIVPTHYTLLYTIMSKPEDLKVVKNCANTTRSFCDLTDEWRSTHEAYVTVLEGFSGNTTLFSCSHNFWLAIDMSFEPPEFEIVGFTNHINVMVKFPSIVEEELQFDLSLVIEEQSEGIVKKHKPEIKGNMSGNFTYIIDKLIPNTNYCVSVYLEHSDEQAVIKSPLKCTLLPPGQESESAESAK
Assay: solid-phase ligand binding assay using a soluble interferon receptor
Conditions: control human IgG1 instead of the receptor
Description: Total RNA was extracted from 2×10^6 human FL cells using Isogen (Nippon Gene Co. Ltd.). 1 μg of total RNA was isolated from genes existing in the extracellular region of interferon receptors AR1 and AR2 strands by PCR using the following primers.
AR1 is designed to encode the extracellular region of amino acid residues 1 to 436 (Uze, G. et al., Cell, 60, 225-234 (1990)) and AR2 is designed to encode the extracellular region of amino acid residues 1 to 243 (Domanski, P. et al., J. Biol. Chem., 270, 21606-21611 (1995)). The resultant PCR fragment was connected to EcoRI site and BamHI site of vector HuIgG1/SRα for expressing a fusion protein with a human IgG1Fc region. The constructed expression vector was subjected to co-transfection with COS-1 cell by the DEAE-Dextran method, thereby transiently expressing a protein. The soluble interferon receptor, produced in the culture solution, was purified using Protein A Sepharose CL-4B column (Amersham Pharmacia Biotech). The purified soluble interferon receptor (1 μg/ml) was allowed to react on a 96-well microplate (Maxisorp, Nunc) at 100 μl/well at 4° C. overnight to be immobilized on the microplate. […] Thus, the absorbance at 450 nm was measured. […] Further, when human interferon β was not added to this system, a signal was not detected. […]

interferon β: interferon β (Feron, Toray Industries, Inc.), used as control
binding to control human IgG1: did not bind
